# Measured values as given in article PMC10665015.
# Molecular target: FtsH (thylakoid hetero-oligomeric FtsH complex composed of FtsH1 (type-A) and FtsH2 (type-B)), Chlamydomonas reinhardtii (C. reinhardtii (endogenous in thylakoid membranes))
substance,measurement,value
"Photosystem II reaction center protein D1 (PsbA) W14F/W317F, Chlamydomonas reinhardtii (from UniProt P07753 1-344) (natural protein)","D1 degradation assay: D1 level left (immunoblot) in cells under high light with chloramphenicol, time course to 90 min (% of the initial level)",50
